Earlier results on 2 molecules are cited in patent US12478643B2, “Compositions and methods for the prevention or treatment of rheumatoid arthritis” (Rhode Island Hospital, priority 2021, dated 2025).

The target of the data set is T1, SHIP2 (Homo sapiens, UniProt O15357).
T1 sequence (O15357 1-1258): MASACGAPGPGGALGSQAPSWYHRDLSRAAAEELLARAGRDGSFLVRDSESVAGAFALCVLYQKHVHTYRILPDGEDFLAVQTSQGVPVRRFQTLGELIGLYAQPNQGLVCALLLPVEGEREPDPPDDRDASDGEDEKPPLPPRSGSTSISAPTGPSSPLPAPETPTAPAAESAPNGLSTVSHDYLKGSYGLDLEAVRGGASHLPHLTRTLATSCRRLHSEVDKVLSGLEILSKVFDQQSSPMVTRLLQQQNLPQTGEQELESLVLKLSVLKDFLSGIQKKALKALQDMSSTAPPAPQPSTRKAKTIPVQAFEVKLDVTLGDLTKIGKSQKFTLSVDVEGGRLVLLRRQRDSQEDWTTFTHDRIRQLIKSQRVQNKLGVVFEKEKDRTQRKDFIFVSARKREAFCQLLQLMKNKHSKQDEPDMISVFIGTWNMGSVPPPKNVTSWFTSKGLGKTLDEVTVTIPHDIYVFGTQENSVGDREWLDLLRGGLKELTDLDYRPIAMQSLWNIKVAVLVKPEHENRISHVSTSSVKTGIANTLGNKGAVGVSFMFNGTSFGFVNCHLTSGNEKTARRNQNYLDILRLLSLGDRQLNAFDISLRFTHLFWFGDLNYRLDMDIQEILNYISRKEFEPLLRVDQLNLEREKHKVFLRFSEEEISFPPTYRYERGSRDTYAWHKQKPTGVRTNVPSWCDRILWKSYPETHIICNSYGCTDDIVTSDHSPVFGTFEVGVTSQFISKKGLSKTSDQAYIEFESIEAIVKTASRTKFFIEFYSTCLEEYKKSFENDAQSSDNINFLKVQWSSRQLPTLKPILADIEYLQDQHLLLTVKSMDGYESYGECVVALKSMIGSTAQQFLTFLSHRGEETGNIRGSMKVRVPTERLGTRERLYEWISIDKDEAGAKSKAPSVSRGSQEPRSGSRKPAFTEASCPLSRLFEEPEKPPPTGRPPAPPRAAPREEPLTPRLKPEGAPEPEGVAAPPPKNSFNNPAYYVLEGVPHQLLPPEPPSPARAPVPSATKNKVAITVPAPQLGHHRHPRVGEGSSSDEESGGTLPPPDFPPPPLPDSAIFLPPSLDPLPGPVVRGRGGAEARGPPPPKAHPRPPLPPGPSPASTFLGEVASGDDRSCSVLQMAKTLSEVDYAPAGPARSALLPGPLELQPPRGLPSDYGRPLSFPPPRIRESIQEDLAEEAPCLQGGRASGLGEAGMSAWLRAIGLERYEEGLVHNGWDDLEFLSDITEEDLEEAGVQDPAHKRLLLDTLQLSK
To be noted: Table 1; cited from earlier work.

`C[C@H](NC(=O)c1sccc1OCc1ccc(Cl)cc1)c1ccccc1` [AS194490]: the IC50 is 0.6 µM.

`CC[C@H]1CC[C@H]2[C@@H]3C[C@@H](O)[C@@]4(O)C[C@H](N)CC[C@]4(C)[C@H]3CC[C@]12C` [Compound K116]: the IC50 was 6.5 to 13 µM.

As a reminder, the IC50 is the concentration that gives 50% inhibition.
